Experimental data: publication PMC8082182 (Frontiers in Pharmacology, 2021)

Conditions: Bloodstream; Not improved patients; IQR not reported for n < 5

## CN[C@H](CC(C)C)C(=O)N[C@H]1C(=O)N[C@@H](CC(N)=O)C(=O)N[C@H]2C(=O)N[C@H]3C(=O)N[C@H](C(=O)N[C@H](C(=O)O)c4cc(O)cc(O)c4-c4cc3ccc4O)[C@H](O)c3ccc(c(Cl)c3)Oc3cc2cc(c3O[C@@H]2O[C@H](CO)[C@@H](O)[C@H](O)[C@H]2O[C@H]2C[C@](C)(N)[C@H](O)[C@H](C)O2)Oc2ccc(cc2Cl)[C@H]1O [vancomycin]
  AUC0–24, median: 225.0 µg·h/mL
